Reference: ChEMBL document CHEMBL1921667, “Discovery and optimization of indoles and 7-azaindoles as Rho kinase (ROCK) inhibitors (part-I)” (Bioorg Med Chem Lett, 2011)

Species on record: Homo sapiens
Test: Selectivity ratio of IC50 for PKA to IC50 for human ROCK2

Structure (SMILES): COc1cccc(CNC(=O)c2c[nH]c3cc(-c4cn[nH]c4)ccc23)c1
- Ratio IC50: > 4000
